Source: US12729231B2, “Fusion protein having triple activity and use thereof” (SHANGHAI MINWEI BIOTECHNOLOGY CO., LTD, priority 2023, dated 2026)

Amino acid sequences for entries named in this document (tags omitted). Residues count along the entry.
UniProt P43220, 24-463: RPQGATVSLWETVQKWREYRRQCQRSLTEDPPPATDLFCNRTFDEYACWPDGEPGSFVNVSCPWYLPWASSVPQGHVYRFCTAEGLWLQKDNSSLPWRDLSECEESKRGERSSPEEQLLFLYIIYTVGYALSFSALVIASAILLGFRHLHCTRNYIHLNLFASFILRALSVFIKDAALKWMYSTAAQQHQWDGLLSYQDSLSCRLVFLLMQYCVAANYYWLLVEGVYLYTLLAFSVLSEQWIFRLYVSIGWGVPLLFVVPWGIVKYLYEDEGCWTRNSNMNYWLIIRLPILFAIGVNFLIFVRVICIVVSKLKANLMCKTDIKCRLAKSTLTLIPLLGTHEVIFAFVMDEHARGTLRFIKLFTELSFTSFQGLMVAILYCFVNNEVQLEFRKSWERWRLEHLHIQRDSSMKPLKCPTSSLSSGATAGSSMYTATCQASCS

Key:
[1] = biological target: T1, human GIP receptor (Homo sapiens, UniProt P48546); assay: in vitro GIP activity, CRE-luciferase reporter in CHO-K1 cells; format: cell-based; details: CHO-K1 cells expressing human GIP receptor and CRE-luciferase, 5 hours incubation
T1 construct: expressed in transfected cells; host or cells: CHO-K1
T1 sequence (P48546 22-466): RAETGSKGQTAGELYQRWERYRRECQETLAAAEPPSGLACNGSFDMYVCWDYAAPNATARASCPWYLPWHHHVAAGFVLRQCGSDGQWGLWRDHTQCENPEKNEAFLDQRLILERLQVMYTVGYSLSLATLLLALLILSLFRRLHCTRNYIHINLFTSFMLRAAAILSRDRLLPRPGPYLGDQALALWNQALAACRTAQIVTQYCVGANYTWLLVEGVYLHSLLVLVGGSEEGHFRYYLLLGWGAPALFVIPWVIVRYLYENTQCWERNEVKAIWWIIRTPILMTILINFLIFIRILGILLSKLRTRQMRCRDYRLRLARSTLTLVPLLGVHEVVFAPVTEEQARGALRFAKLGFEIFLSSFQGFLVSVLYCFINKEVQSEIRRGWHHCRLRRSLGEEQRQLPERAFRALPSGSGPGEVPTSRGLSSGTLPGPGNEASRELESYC
Protocol: (§1) CHO-K1 cells expressing human GIP receptor and CRE-luciferase were used to detect the in vitro GIP activity of the fusion proteins. The cells were inoculated in a 96-well plate at a density of 30,000 cells/well/100 μL, and cultured at 5% CO2, 37° C. for 1 hour. For each protein sample to be tested, the protein solution was diluted 9 times with a 4-fold gradient with PBS containing 2% HAS starting from a certain concentration, so that 10 dilutions of each sample with different concentrations were obtained. 50 μL of each dilution was taken out and added into the 96-well plate inoculated with cells, and the 96-well plate was incubated at 5% CO2, 37° C. for 5 hours. The 96-well plate was taken out from the incubator and placed at room temperature for 10 minutes of equilibration, and 100 μL of reaction solution was added into each well. After the 96-well plate was shaken at 200 rpm for 10 minutes, the fluorescence reading of each well was detected by a multi-function microplate reader. Using the sample concentration as the abscissa and the fluorescence reading as the ordinate, a curve was drawn and the median effective concentration (EC50) of each sample was calculated. The activity of some of the selected fusion proteins is much higher than that of the control Tirzepatide.

[2] = biological target: T2, human GLP-1 receptor (Homo sapiens, UniProt P43220); assay: in vitro GLP-1 activity, CRE-luciferase reporter in CHO-K1 cells; format: cell-based; details: CHO-K1 cells expressing human GLP-1 receptor and CRE-luciferase, 5 hours incubation
T2 construct: expressed in transfected cells; host or cells: CHO-K1
Protocol: as §1, with “GLP-1” for “GIP”, “calculated.” for “calculated. The activity of some of the selected fusion proteins is much higher than that of the control Tirzepatide.”

Tirzepatide
EC50 [1]: 0.059 nM | EC50 [2]: 12.8 nM
